Data as given in ChEMBL document CHEMBL1275330, “Rational design, synthesis, and evaluation of new selective inhibitors of microbial class II (zinc dependent) fructose bis-phosphate aldolases” (J Med Chem, 2010).

What was measured:
[1] = substrate: O=C(COP(=O)(O)O)N(O)CCCCO; conditions: Oryctolagus cuniculus
[2] = substrate: CCCCCC(=O)OCCCCN(O)C(=O)COP(=O)(O)O; conditions: Helicobacter pylori
[3] = substrate: O=C(COP(=O)(O)O)N(O)CCCCO; conditions: Helicobacter pylori

Protein | Km [1] [µM] | Km [2] [µM] | Km [3] [µM]
Fructose-bisphosphate aldolase A (Oryctolagus cuniculus), P00883 (protein) MPHSHPALTPEQKKELSDIAHRIVAPGKGILAADESTGSIAKRLQSIGTENTEENRRFYRQLLLTADDRVNPCIGGVILFHETLYQKADDGRPFPQVIKSKGGVVGIKVDKGVVPLAGTNGETTTQGLDGLSERCAQYKKDGADFAKWRCVLKIGEHTPSALAIMENANVLARYASICQQNGIVPIVEPEILPDGDHDLKRCQYVTEKVLAAVYKALSDHHIYLEGTLLKPNMVTPGHACTQKYSHEEIAMATVTALRRTVPPAVTGVTFLSGGQSEEEASINLNAINKCPLLKPWALTFSYGRALQASALKAWGGKKENLKAAQEEYVKRALANSLACQGKYTPSGQAGAAASESLFISNHAY | 400 | – | –
Fructose-bisphosphate aldolase (Helicobacter pylori (strain ATCC 700392 / 26695) (Campylobacterpylori)), P56109 (protein) MLVKGNEILLKAHKEGYGVGAFNFVNFEMLNAIFEAGNEENSPLFIQTSEGAIKYMGIDMAVGMVKTMCERYPHIPVALHLDHGTTFESCEKAVKAGFTSVMIDASHHAFEENLELTSKVVKMAHNAGVSVEAELGRLMGIEDNISVDEKDAVLVNPKEAEQFVKESQVDYLAPAIGTSHGAFKFKGEPKLDFERLQEVKRLTNIPLVLHGASAIPDNVRKSYLDAGGDLKGSKGVPFEFLQESVKGGINKVNTDTDLRIAFIAEVRKVANEDKSQFDLRKFFSPAQLALKNVVKERMKLLGSANKI | – | 1 | 5.5
